# Assay results: PubChem BioAssay AID1159614 (National Center for Advancing Translational Sciences (NCATS), 2016)
# Protein sequences, listed by entry. Tags and fused reporters are not part of them.
# UniProt P54803, whole entry G286D: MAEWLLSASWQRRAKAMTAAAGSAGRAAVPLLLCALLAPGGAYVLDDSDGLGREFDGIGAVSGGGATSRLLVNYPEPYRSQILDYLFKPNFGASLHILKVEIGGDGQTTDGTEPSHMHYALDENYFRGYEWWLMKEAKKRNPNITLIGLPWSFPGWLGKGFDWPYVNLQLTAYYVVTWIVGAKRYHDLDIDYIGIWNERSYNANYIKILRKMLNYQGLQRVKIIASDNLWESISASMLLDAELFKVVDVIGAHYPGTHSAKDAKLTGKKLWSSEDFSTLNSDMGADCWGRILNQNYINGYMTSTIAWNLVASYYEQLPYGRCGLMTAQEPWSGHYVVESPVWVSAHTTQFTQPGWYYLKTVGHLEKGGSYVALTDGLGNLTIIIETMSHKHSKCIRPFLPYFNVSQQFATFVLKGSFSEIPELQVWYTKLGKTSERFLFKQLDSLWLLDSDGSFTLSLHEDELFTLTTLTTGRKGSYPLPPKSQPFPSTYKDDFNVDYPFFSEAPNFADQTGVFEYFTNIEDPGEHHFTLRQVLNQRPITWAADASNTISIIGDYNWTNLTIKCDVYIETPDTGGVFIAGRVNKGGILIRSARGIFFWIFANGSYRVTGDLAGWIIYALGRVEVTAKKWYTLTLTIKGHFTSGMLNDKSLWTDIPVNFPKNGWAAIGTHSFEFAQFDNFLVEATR
# Only a part is listed here, and it is no random draw. Active and inactive are the calls of the source. The call rests on the fitted dose curve; in most records, active means well fitted activation curve with a large enough effect; inconclusive means small, poorly fitted or top-dose-only effect; inactive means no such curve, though single readings can be large or run the other way.
# Biological target: Galactocerebrosidase (Homo sapiens) (UniProt P54803)
# Experiment: A Novel Cell-Based Assay to Identify Small Molecules for B -Galactocerebrosidase; further: 0% is about no effect; nearly all actives have a fitted effect of over 65% in size
# Conditions: 145M-Twi-hGALC-G270D cells (Twitcher mouse brain line with human GALC G270D), HMU-beta-Gal fluorescence, 48 h; at 57.5 µM (top of the series) unless noted
row,SMILES,activation
1,OCCSCCO,inactive: -15.9%
2,Cc1cccc([N+](=O)[O-])c1[N+](=O)[O-],inactive: -17% [at 114 µM]
3,CCOP(=O)(CC)Oc1ccc([N+](=O)[O-])cc1 (stereo not given),inactive: -4.61%
4,C/C1=C2N=C(/C=C3N=C(/C(C)=C4\[N-][C@@](C)([C@@H]5N=C1[C@](C)(CCC(=O)NC[C@@H](C)OP(=O)([O-])O[C@H]1[C@@H](O)[C@@H](n6cnc7cc(C)c(C)cc76)O[C@@H]1CO)[C@H]5CC(N)=O)[C@@](C)(CC(N)=O)[C@@H]4CCC(N)=O)[C@@](C)(CC(N)=O)[C@@H]\3CCC(N)=O)C(C)(C)[C@@H]/2CCC(N)=O.[C-]#N.[Co+3],inactive: -13.1%
5,O=[N+]([O-])c1cccc([N+](=O)[O-])c1,inactive: -11.4% [at 114 µM]
